Data from patent US9040563B2, “Dual inhibitors of farnesyltransferase and geranylgeranyltransferase I” (H. Lee Moffitt Cancer Center and Research Institute, Inc., priority 2010, dated 2015).

By UniProt entry, the sequences of proteins in these tests, tags left out.
UniProt P49356, whole entry: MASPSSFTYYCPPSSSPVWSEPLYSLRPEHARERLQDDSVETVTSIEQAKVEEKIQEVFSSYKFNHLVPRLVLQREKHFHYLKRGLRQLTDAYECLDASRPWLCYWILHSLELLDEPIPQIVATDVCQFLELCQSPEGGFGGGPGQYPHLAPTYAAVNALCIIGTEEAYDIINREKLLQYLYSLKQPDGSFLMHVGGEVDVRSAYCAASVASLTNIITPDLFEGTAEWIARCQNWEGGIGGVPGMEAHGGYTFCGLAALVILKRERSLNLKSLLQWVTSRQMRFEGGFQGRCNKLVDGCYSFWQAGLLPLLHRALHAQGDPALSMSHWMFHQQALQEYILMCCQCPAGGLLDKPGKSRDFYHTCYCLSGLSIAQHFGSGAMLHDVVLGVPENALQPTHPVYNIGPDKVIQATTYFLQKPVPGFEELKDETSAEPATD

Molecular target: hFTase (Homo sapiens, UniProt P49354+P49356)
Assay: In vitro hFTase inhibition: incorporation of [3H]FPP into recombinant H-Ras-CVLS
Assay type: biochemical
Conditions: read-out: hFTase IC50, average of three independent assays (n = 3) unless stated, errors are standard deviations

## Cn1cnc(S(=O)(=O)N(CCN(Cc2cncn2C)c2ccc(C#N)cc2)CC2CCCCC2)c1
  IC50: 60 nM
